Key:
[1] = Polyplex size distribution by dynamic light scattering (DLS); assay type: physicochemical; details: pH 7.2
[2] = Polyplex ζ-potential (PALS/ELS); assay type: physicochemical; details: pH 7.2

Substance	DLS (nm), DTS1070 [1] [nm]	PDI, DTS1070 [1]	ζ-pot (mV), DTS1070 [2] [mV]
Me-LPEI-l-[N3: BCN]-PEG36-DUPA	130	0.134	26.6
Me-LPEI-l-[N3:DBCO]-PEG36-DUPA	140	0.132	28.2
